Measurements published in article PMC10576142, “Intrinsic structural dynamics dictate enzymatic activity and inhibition” (Proceedings of the National Academy of Sciences of the …, 2023).
Values joined by “and” are separate entries in the source; they are usually repeats but may differ in a detail not shown here. Equal values may be shown once. Read-outs that look alike come from different tables or passages of the source.

Sequences of proteins named here, by UniProt entry; tags and fusion partners are left off.
UniProt Q9BY41, whole entry S39E/M40A: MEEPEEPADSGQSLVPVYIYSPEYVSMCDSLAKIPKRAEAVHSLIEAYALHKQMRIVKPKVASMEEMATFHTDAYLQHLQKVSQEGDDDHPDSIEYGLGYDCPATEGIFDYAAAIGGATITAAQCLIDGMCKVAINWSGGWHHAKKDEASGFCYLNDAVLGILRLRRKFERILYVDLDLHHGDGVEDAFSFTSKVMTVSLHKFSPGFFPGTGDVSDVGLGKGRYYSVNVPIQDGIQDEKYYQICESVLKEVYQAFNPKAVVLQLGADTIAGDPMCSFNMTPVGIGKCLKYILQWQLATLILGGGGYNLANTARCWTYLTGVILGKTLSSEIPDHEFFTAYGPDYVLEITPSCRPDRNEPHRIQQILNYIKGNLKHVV
UniProt Q9BY41, whole entry M274A: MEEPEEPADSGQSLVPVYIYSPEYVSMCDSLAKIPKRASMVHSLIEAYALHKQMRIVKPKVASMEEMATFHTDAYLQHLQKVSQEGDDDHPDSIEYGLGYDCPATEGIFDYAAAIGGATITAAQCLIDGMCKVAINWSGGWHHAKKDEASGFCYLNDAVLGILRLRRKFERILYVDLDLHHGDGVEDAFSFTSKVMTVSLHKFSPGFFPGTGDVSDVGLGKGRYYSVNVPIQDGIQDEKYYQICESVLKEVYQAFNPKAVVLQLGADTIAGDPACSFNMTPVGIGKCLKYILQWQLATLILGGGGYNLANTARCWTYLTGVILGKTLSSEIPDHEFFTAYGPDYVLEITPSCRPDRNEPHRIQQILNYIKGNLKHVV
UniProt Q9BY41, whole entry L179A: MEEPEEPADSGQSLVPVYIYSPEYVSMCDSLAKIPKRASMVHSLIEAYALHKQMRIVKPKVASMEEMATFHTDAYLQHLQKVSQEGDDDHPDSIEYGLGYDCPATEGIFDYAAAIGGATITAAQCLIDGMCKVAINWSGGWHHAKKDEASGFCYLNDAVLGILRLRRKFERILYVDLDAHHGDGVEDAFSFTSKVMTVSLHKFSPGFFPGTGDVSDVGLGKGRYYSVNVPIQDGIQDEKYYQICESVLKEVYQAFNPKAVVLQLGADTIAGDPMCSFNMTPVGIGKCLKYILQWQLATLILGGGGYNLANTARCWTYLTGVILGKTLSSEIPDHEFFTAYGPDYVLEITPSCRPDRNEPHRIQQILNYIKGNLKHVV

Tests used:
wild-type HDAC8 [1] = biological target: T1, wild-type HDAC8 (Homo sapiens, UniProt Q9BY41); settings: V25Cγ2 in TCSA-bound HDAC8
S39E,M40A-HDAC8 = S39E,M40A-HDAC8 (Homo sapiens, UniProt Q9BY41, M40A/S39E); settings: S39E,M40A-HDAC8 vs wild-type HDAC8
wild-type HDAC8 [2] = biological target: T1, wild-type HDAC8
M274A-HDAC8 = M274A-HDAC8 (Homo sapiens, UniProt Q9BY41, M274A); settings: NMR titration
L179A-HDAC8 = L179A-HDAC8 (Homo sapiens, UniProt Q9BY41, L179A)

R2eff (wild-type HDAC8 [1]; 14.1 T, 278 K, nu_cpmg 66.67 Hz): 32.498 s⁻¹
R2eff (wild-type HDAC8 [1]; 14.1 T, 278 K, nu_cpmg 133.33 Hz): 26.223 s⁻¹ and 27.189 s⁻¹
R2eff (wild-type HDAC8 [1]; 14.1 T, 278 K, nu_cpmg 200.00 Hz): 24.850 s⁻¹
R2eff (wild-type HDAC8 [1]; 14.1 T, 278 K, nu_cpmg 266.67 Hz): 25.697 s⁻¹
R2eff (wild-type HDAC8 [1]; 14.1 T, 278 K, nu_cpmg 333.33 Hz): 25.422 s⁻¹
R2eff (wild-type HDAC8 [1]; 14.1 T, 278 K, nu_cpmg 400.00 Hz): 24.058 s⁻¹
R2eff (wild-type HDAC8 [1]; 14.1 T, 278 K, nu_cpmg 466.67 Hz): 25.990 s⁻¹
R2eff (wild-type HDAC8 [1]; 14.1 T, 278 K, nu_cpmg 533.33 Hz): 25.379 s⁻¹
R2eff (wild-type HDAC8 [1]; 14.1 T, 278 K, nu_cpmg 600.00 Hz): 24.388 s⁻¹
R2eff (wild-type HDAC8 [1]; 14.1 T, 278 K, nu_cpmg 666.67 Hz): 25.489 s⁻¹
R2eff (wild-type HDAC8 [1]; 14.1 T, 278 K, nu_cpmg 733.33 Hz): 24.274 s⁻¹
R2eff (wild-type HDAC8 [1]; 14.1 T, 278 K, nu_cpmg 800.00 Hz): 23.409 s⁻¹
R2eff (wild-type HDAC8 [1]; 14.1 T, 288 K, nu_cpmg 133.33 Hz): 27.625 s⁻¹ and 28.166 s⁻¹
R2eff (wild-type HDAC8 [1]; 14.1 T, 288 K, nu_cpmg 200.00 Hz): 23.856 s⁻¹
R2eff (wild-type HDAC8 [1]; 14.1 T, 288 K, nu_cpmg 266.67 Hz): 22.488 s⁻¹
R2eff (wild-type HDAC8 [1]; 14.1 T, 288 K, nu_cpmg 333.33 Hz): 21.037 s⁻¹
R2eff (wild-type HDAC8 [1]; 14.1 T, 288 K, nu_cpmg 400.00 Hz): 22.085 s⁻¹
R2eff (wild-type HDAC8 [1]; 14.1 T, 288 K, nu_cpmg 466.67 Hz): 21.747 s⁻¹
R2eff (wild-type HDAC8 [1]; 14.1 T, 288 K, nu_cpmg 533.33 Hz): 21.611 s⁻¹
R2eff (wild-type HDAC8 [1]; 14.1 T, 288 K, nu_cpmg 600.00 Hz): 21.086 s⁻¹
R2eff (wild-type HDAC8 [1]; 14.1 T, 288 K, nu_cpmg 666.67 Hz): 21.297 s⁻¹
R2eff (wild-type HDAC8 [1]; 14.1 T, 288 K, nu_cpmg 733.33 Hz): 21.731 s⁻¹
R2eff (wild-type HDAC8 [1]; 14.1 T, 288 K, nu_cpmg 800.00 Hz): 19.951 s⁻¹
R2eff (wild-type HDAC8 [1]; 14.1 T, 298 K, nu_cpmg 66.67 Hz): 37.343 s⁻¹
R2eff (wild-type HDAC8 [1]; 14.1 T, 298 K, nu_cpmg 133.33 Hz): 26.400 s⁻¹ and 26.714 s⁻¹
R2eff (wild-type HDAC8 [1]; 14.1 T, 298 K, nu_cpmg 200.00 Hz): 23.363 s⁻¹
R2eff (wild-type HDAC8 [1]; 14.1 T, 298 K, nu_cpmg 266.67 Hz): 21.017 s⁻¹
R2eff (wild-type HDAC8 [1]; 14.1 T, 298 K, nu_cpmg 333.33 Hz): 18.977 s⁻¹
R2eff (wild-type HDAC8 [1]; 14.1 T, 298 K, nu_cpmg 400.00 Hz): 18.431 s⁻¹
R2eff (wild-type HDAC8 [1]; 14.1 T, 298 K, nu_cpmg 466.67 Hz): 18.608 s⁻¹
R2eff (wild-type HDAC8 [1]; 14.1 T, 298 K, nu_cpmg 533.33 Hz): 17.449 s⁻¹
R2eff (wild-type HDAC8 [1]; 14.1 T, 298 K, nu_cpmg 600.00 Hz): 16.890 s⁻¹
R2eff (wild-type HDAC8 [1]; 14.1 T, 298 K, nu_cpmg 666.67 Hz): 16.824 s⁻¹
R2eff (wild-type HDAC8 [1]; 14.1 T, 298 K, nu_cpmg 733.33 Hz): 16.755 s⁻¹
R2eff (wild-type HDAC8 [1]; 14.1 T, 298 K, nu_cpmg 800.00 Hz): 17.438 s⁻¹
R2eff (wild-type HDAC8 [1]; 18.8 T, 278 K, nu_cpmg 66.67 Hz): 39.061 s⁻¹
R2eff (wild-type HDAC8 [1]; 18.8 T, 278 K, nu_cpmg 133.33 Hz): 32.118 s⁻¹ and 33.502 s⁻¹
R2eff (wild-type HDAC8 [1]; 18.8 T, 278 K, nu_cpmg 200.00 Hz): 32.056 s⁻¹
R2eff (wild-type HDAC8 [1]; 18.8 T, 278 K, nu_cpmg 266.67 Hz): 29.457 s⁻¹
R2eff (wild-type HDAC8 [1]; 18.8 T, 278 K, nu_cpmg 333.33 Hz): 30.917 s⁻¹
R2eff (wild-type HDAC8 [1]; 18.8 T, 278 K, nu_cpmg 400.00 Hz): 30.040 s⁻¹
R2eff (wild-type HDAC8 [1]; 18.8 T, 278 K, nu_cpmg 466.67 Hz): 29.695 s⁻¹
R2eff (wild-type HDAC8 [1]; 18.8 T, 278 K, nu_cpmg 533.33 Hz): 28.967 s⁻¹
R2eff (wild-type HDAC8 [1]; 18.8 T, 278 K, nu_cpmg 600.00 Hz): 29.134 s⁻¹
R2eff (wild-type HDAC8 [1]; 18.8 T, 278 K, nu_cpmg 666.67 Hz): 28.601 s⁻¹
R2eff (wild-type HDAC8 [1]; 18.8 T, 278 K, nu_cpmg 733.33 Hz): 29.615 s⁻¹
R2eff (wild-type HDAC8 [1]; 18.8 T, 278 K, nu_cpmg 800.00 Hz): 29.307 s⁻¹
R2eff (wild-type HDAC8 [1]; 18.8 T, 288 K, nu_cpmg 66.67 Hz): 52.270 s⁻¹
R2eff (wild-type HDAC8 [1]; 18.8 T, 288 K, nu_cpmg 133.33 Hz): 33.997 s⁻¹ and 34.323 s⁻¹
R2eff (wild-type HDAC8 [1]; 18.8 T, 288 K, nu_cpmg 200.00 Hz): 28.626 s⁻¹
R2eff (wild-type HDAC8 [1]; 18.8 T, 288 K, nu_cpmg 266.67 Hz): 25.525 s⁻¹
R2eff (wild-type HDAC8 [1]; 18.8 T, 288 K, nu_cpmg 333.33 Hz): 23.878 s⁻¹
R2eff (wild-type HDAC8 [1]; 18.8 T, 288 K, nu_cpmg 400.00 Hz): 23.396 s⁻¹
R2eff (wild-type HDAC8 [1]; 18.8 T, 288 K, nu_cpmg 466.67 Hz): 22.481 s⁻¹
R2eff (wild-type HDAC8 [1]; 18.8 T, 288 K, nu_cpmg 533.33 Hz): 22.246 s⁻¹
R2eff (wild-type HDAC8 [1]; 18.8 T, 288 K, nu_cpmg 600.00 Hz): 22.668 s⁻¹
R2eff (wild-type HDAC8 [1]; 18.8 T, 288 K, nu_cpmg 666.67 Hz): 22.090 s⁻¹
R2eff (wild-type HDAC8 [1]; 18.8 T, 288 K, nu_cpmg 733.33 Hz): 22.188 s⁻¹
R2eff (wild-type HDAC8 [1]; 18.8 T, 288 K, nu_cpmg 800.00 Hz): 22.089 s⁻¹
R2eff (wild-type HDAC8 [1]; 18.8 T, 298 K, nu_cpmg 66.67 Hz): 52.299 s⁻¹
R2eff (wild-type HDAC8 [1]; 18.8 T, 298 K, nu_cpmg 200.00 Hz): 31.958 s⁻¹
R2eff (wild-type HDAC8 [1]; 18.8 T, 298 K, nu_cpmg 266.67 Hz): 27.699 s⁻¹
R2eff (wild-type HDAC8 [1]; 18.8 T, 298 K, nu_cpmg 333.33 Hz): 24.727 s⁻¹
R2eff (wild-type HDAC8 [1]; 18.8 T, 298 K, nu_cpmg 400.00 Hz): 22.893 s⁻¹
R2eff (wild-type HDAC8 [1]; 18.8 T, 298 K, nu_cpmg 466.67 Hz): 21.367 s⁻¹
R2eff (wild-type HDAC8 [1]; 18.8 T, 298 K, nu_cpmg 533.33 Hz): 20.604 s⁻¹
R2eff (wild-type HDAC8 [1]; 18.8 T, 298 K, nu_cpmg 600.00 Hz): 20.442 s⁻¹
R2eff (wild-type HDAC8 [1]; 18.8 T, 298 K, nu_cpmg 666.67 Hz): 19.343 s⁻¹
R2eff (wild-type HDAC8 [1]; 18.8 T, 298 K, nu_cpmg 733.33 Hz): 19.099 s⁻¹
R2eff (wild-type HDAC8 [1]; 18.8 T, 298 K, nu_cpmg 800.00 Hz): 18.871 s⁻¹
TCSA affinity compared with wild-type HDAC8 (S39E,M40A-HDAC8): No significant difference
Fraction saturated free HDAC8 (wild-type HDAC8 [2]; 17.5 µm TSA, wild type HDAC8 (Fig 3d)): 0.450
Fraction saturated free HDAC8 (wild-type HDAC8 [2]; 35.0 µm TSA, wild type HDAC8 (Fig 3d)): 0.708
Fraction saturated free HDAC8 (wild-type HDAC8 [2]; 70.0 µm TSA, wild type HDAC8 (Fig 3d)): 0.838
Fraction saturated free HDAC8 (wild-type HDAC8 [2]; 175.0 µm TSA, wild type HDAC8 (Fig 3d)): 0.912
Fraction saturated free HDAC8 (wild-type HDAC8 [2]; NMR titration, wild type HDAC8, Con. Of TSA 17.5 (unit not given)): 0.450
Fraction saturated free HDAC8 (wild-type HDAC8 [2]; NMR titration, wild type HDAC8, Con. Of TSA 35.0 (unit not given)): 0.708
Fraction saturated free HDAC8 (wild-type HDAC8 [2]; NMR titration, wild type HDAC8, Con. Of TSA 70.0 (unit not given)): 0.838
Fraction saturated free HDAC8 (wild-type HDAC8 [2]; NMR titration, wild type HDAC8, Con. Of TSA 175.0 (unit not given)): 0.912
Fraction saturated M274A-HDAC8 (M274A-HDAC8; Con. Of TSA 105 (unit not given)): 0.299
Fraction saturated M274A-HDAC8 (M274A-HDAC8; Con. Of TSA 210 (unit not given)): 0.552
Fraction saturated M274A-HDAC8 (M274A-HDAC8; Con. Of TSA 315 (unit not given)): 0.679
Fraction saturated M274A-HDAC8 (M274A-HDAC8; Con. Of TSA 420 (unit not given)): 0.739
Fraction saturated M274A-HDAC8 (M274A-HDAC8; Con. Of TSA 630 (unit not given)): 0.776
Fraction saturated M274A-HDAC8 (M274A-HDAC8; Con. Of TSA 840 (unit not given)): 0.796
Fraction saturated L179A-HDAC8 (L179A-HDAC8; 90 µm TSA (Fig 3d)): 0.429
Fraction saturated L179A-HDAC8 (L179A-HDAC8; 180 µm TSA (Fig 3d)): 0.571
Fraction saturated L179A-HDAC8 (L179A-HDAC8; 270 µm TSA (Fig 3d)): 0.664
Fraction saturated L179A-HDAC8 (L179A-HDAC8; 360 µm TSA (Fig 3d)): 0.665
Fraction saturated L179A-HDAC8 (L179A-HDAC8; 540 µm TSA (Fig 3d)): 0.751
Fraction saturated L179A-HDAC8 (L179A-HDAC8; 720 µm TSA (Fig 3d)): 0.791
SMILES: CC(/C=C/C(=O)NO)=C\[C@@H](C)C(=O)c1ccc(N(C)C)cc1 [TCSA, trichostatin A]
